Source: ChEMBL document CHEMBL2150954, “A novel, unusually efficacious duocarmycin carbamate prodrug that releases no residual byproduct” (J Med Chem, 2012)

Experiment: Half life in phosphate buffer at pH 7

## O=C1Nc2cccc3c4c(cc(c23)O1)N(C(=O)c1cc2cc(NC(=O)c3cc5ccccc5[nH]3)ccc2[nH]1)C[C@H]4CCl
  t1/2: > 28 days
